# Patent publication US9108854B2, “Biocidal colloidal dispersions of silica particles with silver ions adsorbed thereon” (PREBONA AB, priority 2009, dated 2015)
# Experiment: Precipitation of silver at alkaline pH (1000 ppm silver, pH 8.65)
# Format: physicochemical
substance,measurement,value
silver nitrate [AgNO3 solution],appearance / precipitate formation at alkaline pH,a precipitate was formed immediately
